From patent US9695132B2, “Heteroaryl compounds and uses thereof” (Celgene CAR LLC, priority 2013, dated 2017)

Protein sequences, listed by entry. Tags and fused reporters are not part of them. Residues count along the entry.
UniProt P22455, 22-802: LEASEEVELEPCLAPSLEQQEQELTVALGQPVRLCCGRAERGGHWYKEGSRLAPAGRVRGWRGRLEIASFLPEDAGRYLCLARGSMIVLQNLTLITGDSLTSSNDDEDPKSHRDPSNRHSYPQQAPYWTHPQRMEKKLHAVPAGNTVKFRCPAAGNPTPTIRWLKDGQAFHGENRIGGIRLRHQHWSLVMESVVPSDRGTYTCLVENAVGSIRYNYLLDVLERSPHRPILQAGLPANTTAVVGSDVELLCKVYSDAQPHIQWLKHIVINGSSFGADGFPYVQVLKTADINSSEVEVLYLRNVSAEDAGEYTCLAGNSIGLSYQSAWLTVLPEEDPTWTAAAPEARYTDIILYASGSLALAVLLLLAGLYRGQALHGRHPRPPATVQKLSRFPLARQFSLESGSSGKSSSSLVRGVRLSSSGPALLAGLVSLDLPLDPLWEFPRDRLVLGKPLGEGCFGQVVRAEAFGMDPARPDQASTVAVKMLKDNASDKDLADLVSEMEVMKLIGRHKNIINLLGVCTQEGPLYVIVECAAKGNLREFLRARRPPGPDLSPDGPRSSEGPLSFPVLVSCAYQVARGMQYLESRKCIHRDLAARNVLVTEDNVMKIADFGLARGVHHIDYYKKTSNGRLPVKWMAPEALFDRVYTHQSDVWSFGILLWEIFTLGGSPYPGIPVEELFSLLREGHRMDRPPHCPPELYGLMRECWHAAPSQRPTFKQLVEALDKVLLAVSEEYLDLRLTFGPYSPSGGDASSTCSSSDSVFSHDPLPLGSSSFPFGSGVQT

Columns and labels:
FGFR4-WT = FGFR4-WT (Homo sapiens (Human), UniProt P22455); assay: Omnia assay for potency assessment against FGFR4 enzyme; type: biochemical
Procedure: A 10× stock solution of FGFR4-WT (PR4380C), (from Invitrogen, Carlsbad, Calif.) corresponding to method a in Table 7, was prepared as described below. Alternatively, a 10× stock solution of FGFR4-WT (F01-11G), (SignalChem, Richmond, BC) corresponding to method b in Table 7, was prepared as described below. A solution of 1.4×ATP (AS001A) and 5× Tyr-Sox conjugated peptide substrate (KNZ3101) were prepared in 1× kinase reaction buffer consisting of 20 mM Tris, pH 7.5, 5 mM MgCl2, 1 mM EGTA, 5 mM β-glycerophosphate, 5% glycerol (10× stock, KB002A) and 0.2 mM DTT (DS001A). […] The serially diluted compounds were prepared on a Tecan EVO100. A second addition of 10 μl of Tyr-Sox FGFR4 substrate was added to each well and the kinase reactions were started with the addition of 35 μL of 1.4×ATP. The reactions were monitored every 71 seconds for 240 minutes at λex360/λem485 in a Synergy plate reader from BioTek (Winooski, Vt.).

pFGFR4 in Huh7 cells = pFGFR4 in Huh7 cells (Homo sapiens (Human), UniProt P22455); assay: FGFR4 signaling, Meso Scale assay (MSD), Method B, Huh7

Row | SMILES | IC50 (FGFR4-WT) [nM] | EC50 (pFGFR4 in Huh7 cells) [nM]
1 | C=CC(=O)NC1CCCCC1Nc1ncc2c(n1)N(C)C(=O)N(c1c(Cl)c(OC)cc(OC)c1Cl)C2 (racemic) [Compound I-19] | 101 to 500 | –
2 | C=CC(=O)Nc1ccccc1Nc1ncc2c(n1)N(C1CCN(CC)CC1)C(=O)N(c1cc(OC)cc(OC)c1)C2 [Compound I-80] | – | > 1000
3 | C=CC(=O)Nc1ccccc1Nc1ncc2c(n1)N(C1CCNCC1)C(=O)N(c1cc(OC)cc(OC)c1)C2 [Compound I-81] | – | > 1000
